This note sets out measurements from US12043670B2, “Anti-BCMA antibody-drug conjugates and methods of use” (Eisai R&D Management Co., Ltd., priority 2020, dated 2024).

The test deals with OPM2 tumors. The test is described as follows: In vivo mRNA splicing modulation (NanoString), OPM2 tumors. Also noted: species or system mouse. As to conditions: 10 mg/kg, 24 hours and 48 hours post-dose. An excerpt:
Two human myeloma cell lines, OPM2 and MOLP8, were subcutaneously inoculated into female CB17-Scid mice (5×10^6 cells/mouse), and tumors were allowed to reach ˜300-500 mm^3 in volume prior to randomization into treatment groups. Mice were then randomly assigned to receive a single intravenous dose of either unconjugated reference antibody (AB200) or an anti-BCMA ADC. At predetermined time points after dosing, mice were euthanized according to institutionally approved protocols and tumor tissue was collected. Tumor fragments were then flash-frozen in liquid nitrogen or frozen following incubation in RNAlater preservation solution.
Total tumor RNA was isolated from tumor samples using the MagMAX™-96 for Microarrays Total RNA Isolation kit and MagMax instrument according to the manufacturer's instructions. RNA was quantified by UV absorbance on a NanoDrop spectrophotometer. Gene expression analysis was performed on the NanoString nCounter gene expression platform (NanoString Technologies). A custom code set consisting of a 70-gene panel with 61 genes to measure splicing changes induced by ADC and nine housekeeping genes was used (FIG. 5). […]

B1: AB200-ADL5-D4 (conjugate)
heavy: QVQLVQSGAEVKKPGSSVKVSCKASGGTFSNYWMHWVRQAPGQGLEWMGATYRGHSDTYYNQKFKGRVTITADKSTSTAYMELSSLRSEDTAVYYCARGAIYDGYDVLDNWGQGTLVTVSSASTKGPSVFPLAPSSKSTSGGTAALGCLVKDYFPEPVTVSWNSGALTSGVHTFPAVLQSSGLYSLSSVVTVPSSSLGTQTYICNVNHKPSNTKVDKKV[omitted - human IgG1 Fc]
light: DIQMTQSPSSLSASVGDRVTITCSASQDISNYLNWYQQKPGKAPKLLIYYTSNLHSGVPSRFSGSGSGTDFTLTISSLQPEDFATYYCQQYRKLPWTFGQGTKLEIKRTVAAPSVFIFPPSDEQLKSGTASVVCLLNNFYPREAKVQWKVDNALQSGNSQESVTEQDSKDSTYSLSSTLTLSKADYEKHKVYACEVTHQGLSSPVTKSFNRGEC
In the case of B1, the “splicing modulation in tumors relative to AB200 antibody alone” value was “statistically significant splicing modulation”.
